Results taken from patent US6322962A, “Sterol-regulated Site-1 protease and assays of modulators thereof” (Board of Regents, The University of Texas System, priority 1999, dated 2001).

Target: S1P(983)-C, purified secreted enzyme (hamster)

## aprotinin (from UniProt P00974)
  AMC liberated from Ac-VFRSLK-MCA by S1P(983)-C, % control, at 0.0003 mM aprotinin: 89 % control
